From patent EP0953357A1, “NEPHROTROPIC DRUGS” (Drug Delivery System Institute, Ltd., priority 1997, dated 1998) come the findings set out here.

A short description of the data set: Organ distribution of oxytocin derivatives (Test 5). The conditions noted are these: rats, as in Test 1; average (n = 3) ± standard error.

Substance oxytocin registered a Hepatic clearance of 0.05 ± 0.01 mL/min/g and a Renal clearance of 0.39 ± 0.06 mL/min/g.
